Assay results taken from US9753034B2, “Process for the identification of a compound which inhibits the binding of the first bromodomain of each of human BRD-2, BRD-3, and BRD-4” (GLAXOSMITHKLINE LLC, priority 2009, dated 2017).

Amino acid sequences for entries named in this document (tags omitted). Residues count along the entry.
UniProt P25440, 1-473: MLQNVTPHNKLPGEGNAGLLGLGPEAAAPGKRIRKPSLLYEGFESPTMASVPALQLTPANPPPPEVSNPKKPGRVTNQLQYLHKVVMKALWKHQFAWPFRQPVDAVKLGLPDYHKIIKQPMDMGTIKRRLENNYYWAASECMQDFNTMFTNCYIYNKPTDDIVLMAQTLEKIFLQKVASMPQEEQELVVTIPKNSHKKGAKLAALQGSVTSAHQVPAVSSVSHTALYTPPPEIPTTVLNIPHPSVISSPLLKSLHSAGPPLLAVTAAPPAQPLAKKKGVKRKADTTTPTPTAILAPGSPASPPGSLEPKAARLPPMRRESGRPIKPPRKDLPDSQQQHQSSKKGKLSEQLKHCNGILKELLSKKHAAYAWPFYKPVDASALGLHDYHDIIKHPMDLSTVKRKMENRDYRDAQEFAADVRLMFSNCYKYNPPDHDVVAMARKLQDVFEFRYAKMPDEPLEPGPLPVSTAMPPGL
UniProt Q15059, 1-435: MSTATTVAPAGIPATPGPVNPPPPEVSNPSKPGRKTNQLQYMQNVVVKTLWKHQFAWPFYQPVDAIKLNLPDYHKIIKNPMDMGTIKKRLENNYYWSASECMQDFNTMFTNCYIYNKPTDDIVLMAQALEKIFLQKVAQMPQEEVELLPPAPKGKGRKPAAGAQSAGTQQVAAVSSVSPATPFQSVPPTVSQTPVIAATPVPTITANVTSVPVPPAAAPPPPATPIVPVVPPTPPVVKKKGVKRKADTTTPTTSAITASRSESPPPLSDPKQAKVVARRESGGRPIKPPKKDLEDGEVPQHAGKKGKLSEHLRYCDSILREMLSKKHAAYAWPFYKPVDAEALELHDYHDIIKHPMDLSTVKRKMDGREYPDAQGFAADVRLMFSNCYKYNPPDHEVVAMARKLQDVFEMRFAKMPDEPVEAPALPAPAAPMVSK

Legend:
[1] = biological target: T1, Bromodomain BRD-2 (1-473) (Homo sapiens, UniProt P25440); assay: Fluorescence Anisotropy Binding Assay, BRD-2; settings: pIC50 in the BRD-2 assay, displacement of fluorescent ligand (Reference compound K) 5 nM, BRD-2 75 nM
T1 construct: Recombinant Human Bromodomains (BRD-2 (1-473), BRD-3 (1-435) and BRD-4 (1-477)); six-His tag (N); made in house; host or cells: E. coli (pET15b vector)
Description: (§1) Fluorescence Anisotropy Binding Assay
(§2) All data was normalized to the mean of 16 high and 16 low control wells on each plate. A four parameter curve fit of the following form was then applied: y=a+((b−a)/(1+(10^x/10^c)^d)
(§3) Where ‘a’ is the minimum, ‘b’ is the Hill slope, ‘c’ is the pIC50 and ‘d’ is the maximum.
(§4) The His-tagged Bromodomain was extracted from E. coli cells using 0.1 mg/ml lysozyme and sonication. […] Further purification was completed by Superdex 200 prep grade size exclusion column. Purified protein was stored at −80 C in 20 mM HEPES pH 7.5 and 100 mM NaCl.
(§5) 10 μl of this reaction mixture was added using a micro multidrop to wells containing 100 nl of various concentrations of test compound or DMSO vehicle (1% final) in Greiner 384 well Black low volume microtitre plate and equilibrated in dark 60 mins at room temperature.

[2] = biological target: T2, Bromodomain BRD-3 (1-435) (Homo sapiens, UniProt Q15059); assay: Fluorescence Anisotropy Binding Assay, BRD-3; settings: pIC50 in the BRD-3 assay, displacement of fluorescent ligand (Reference compound K) 5 nM, BRD-3 75 nM
T2 construct: Recombinant Human Bromodomains (BRD-2 (1-473), BRD-3 (1-435) and BRD-4 (1-477)); six-His tag (N); made in house; host or cells: E. coli (pET15b vector)
Description: as §1, §2, §3, §4, §5

With Cc1nnc2n1-c1ccccc1C(c1ccccc1)=NC2NC(=O)OCc1ccccc1 (single isomer, unassigned; (+)) [Compound (I), (+)-Phenylmethyl (1-methyl-6-phenyl-4H-[1,2,4]triazolo[4,3-a][1,4]benzodiazepin-4-yl)carbamate] as the compound, how does the IC50 [1] read?
Its IC50 is no more than 1000 nM.

What about the IC50 [2] of the same compound?
The IC50 was no more than 1000 nM.
